# Only a part is listed here, and it is no random draw. The source made the active and inactive calls.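 The calls were made as follows: active = inhibition above the mean of compounds falling within the control limits plus 3 SD of them (cut at about 14% in these data); inactive = the rest.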
# Chains of the proteins cited; added tags and fusions are not shown. Lines headed by an entry give the natural chain unless they say otherwise; changes in a name come on top.
# UniProt P02675: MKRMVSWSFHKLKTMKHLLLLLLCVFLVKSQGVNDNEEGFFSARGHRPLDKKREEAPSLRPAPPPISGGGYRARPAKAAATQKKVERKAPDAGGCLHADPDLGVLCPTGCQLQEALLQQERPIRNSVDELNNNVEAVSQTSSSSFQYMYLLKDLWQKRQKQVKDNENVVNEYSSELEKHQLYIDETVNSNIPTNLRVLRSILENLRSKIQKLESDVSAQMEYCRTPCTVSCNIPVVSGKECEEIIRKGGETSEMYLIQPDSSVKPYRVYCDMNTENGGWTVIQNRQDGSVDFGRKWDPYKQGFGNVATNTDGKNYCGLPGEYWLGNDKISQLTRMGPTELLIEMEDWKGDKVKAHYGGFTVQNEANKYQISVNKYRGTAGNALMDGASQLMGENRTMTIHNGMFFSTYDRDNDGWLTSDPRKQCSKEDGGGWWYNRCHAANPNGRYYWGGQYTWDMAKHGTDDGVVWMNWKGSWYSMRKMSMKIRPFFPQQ
# Target: Fibrinogen beta chain (Homo sapiens) (UniProt P02675)
# Assay: inhibitors of Tn7 peptide binding to fibrin DD(E), primary screen, biochemical, fluorescence polarization, human fibrin, Tn7 probe (AID 720508);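 also: 0% = plate median of compound wells and 100% = 10 µM Aha-Tn7 peptide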
# Details: FP displacement of FITC-Tn7 peptide from fibrin DD(E); at 8.3 µM; stronger effect = higher value; 0% = median of compound wells per plate
row,Structure (SMILES),inhibition
1,O=C(O)COc1ccc([As](=O)(O)O)cc1[N+](=O)[O-],inactive: 2.12%
2,Nc1ccccc1[As](=O)(O)c1ccccc1,inactive: -15.5%
3,CCOP1(=S)c2c(C)nn(CCC#N)c2N=C(c2ccccc2F)N1C (stereo not given),inactive: 5.95%
4,O=P(Nc1nccs1)(Oc1ccccc1)Oc1ccccc1,inactive: 5.06%
5,N#CCCN(C(=O)COC(=O)C(O)(c1ccccc1)c1ccccc1)c1ccc(F)cc1,inactive: -0.08%
6,CN(C(=O)Cc1ccccc1)[C@@H]1CC[C@]2(CCCO2)C[C@H]1N1CCCC1,inactive: 7.23%
7,CCOP1(=S)c2c(C)nn(CCC#N)c2N=C(c2ccc(F)cc2)N1C (stereo not given),inactive: 2.89%
8,O=[N+]([O-])c1ccc2c(c1)nnn2O,inactive: -3.14%
9,CN(C)C(=O)c1cc([N+](=O)[O-])cc2c1-c1c(cc([N+](=O)[O-])cc1[N+](=O)[O-])C2=O,inactive: 0.85%
10,CN(C(=O)Cc1ccc(Cl)c(Cl)c1)[C@H]1CC[C@@]2(CCCO2)C[C@@H]1N1CCCC1,inactive: -1.44%
11,Cc1cccc(OCC(=O)OC2CN3CCC2CC3)c1 (stereo not given),inactive: -4.36%
12,O=[As](O)(c1cccc(O)c1)c1cccc(O)c1,inactive: -6.05%
13,O=C(OC1CN2CCC1CC2)c1ccc(Cl)cc1 (stereo not given),inactive: 2.01%
14,O=[As](O)(O)c1cccnc1,inactive: -8.4%
15,COc1cc(C(=O)NCC2(N3CCOCC3)CCCCC2)cc(Cl)c1OC(C)C,inactive: 3.18%
16,CS(=O)(=O)c1ccc(Cl)c(NC(=O)COC(=O)C(O)(c2ccccc2)c2ccccc2)c1,inactive: -9.98%
17,COc1cc(C2NCCC3(OCCO3)C2(C)C)cc(OC)c1OC (stereo not given),inactive: 2.65%
18,CCOP(=O)(Nc1cccc2ccccc12)OCC,inactive: -1%
19,Nc1cccc2c([As](=O)(O)O)cccc12,active: 16.1%
20,Cc1ccc(NCCc2c([N+](=O)[O-])cc([N+](=O)[O-])cc2[N+](=O)[O-])cc1,inactive: 6.88%
21,CCCOP(=S)(Nc1nc(N)cc(=O)[nH]1)OCCC,inactive: -8.84%
22,Clc1n[nH]nc1-c1nn[nH][15n]1,inactive: 8.11%

row,Structure (SMILES),inhibition
1,O=P1(N(CCCl)CCCl)NCCC(C(F)(F)F)O1 (stereo not given),inactive: -2.51%
2,CC(C)(C)C(=O)NC(Sc1ncccn1)C(Cl)(Cl)Cl (stereo not given),inactive: 4.94%
3,CCC1=CC2Cc3nc4ccc(Cl)cc4c(N)c3C(C1)C2 (stereo not given),inactive: -2.98%
4,O=P1(Nc2ccccn2)COc2ccccc2OC1,inactive: -3.37%
5,CCOP(=O)(NC(=NC(C)c1ccccc1)NC(C)c1ccccc1)OCC (stereo not given),inactive: 5.52%
6,CCOP(=O)(Nc1ccc(C)cn1)OCC,inactive: 6.05%
7,CN(CCCl)Cc1cc(Cl)c(NC2=NCCN2)c(Cl)c1,inactive: 1.92%
8,CC(C)/C=N\N=C(\N)N[N+](=O)[O-],inactive: 5.18%
9,CC1(CBr)Cn2c(nc3ccccc3c2=O)S1 (stereo not given),inactive: -5.41%
10,COc1ccccc1CNC(=O)COC(=O)C(O)(c1ccccc1)c1ccccc1,inactive: -4.17%
11,CN(C)C1(CNC(=O)c2ccc(S(C)(=O)=O)cc2)CCCCC1,inactive: 1.51%
12,O=C(/C=C/c1ccccc1)OC1CN2CCC1CC2 (stereo not given),inactive: -5.73%
13,CCCC1OP(=O)(Nc2ccccc2)OCC1CC (stereo not given),inactive: 0.34%
14,Cc1nn(-c2ccccc2)c2c1P(=O)(N1CCOCC1)N(C)C(c1ccccc1)=N2 (stereo not given),inactive: -1.52%
15,Cc1ccc(C(=O)OC2CN3CCC2CC3)cc1 (stereo not given),inactive: 0.3%
16,CC1CCC(C(C)C)C(OP(=O)(Nc2ccccn2)c2ccccc2)C1 (stereo not given),inactive: 2.05%
17,Nc1cccc([As](=O)(O)c2ccccc2)c1,inactive: 0.49%
18,O=[As](O)(c1cccs1)c1cccs1,inactive: -2.07%
19,Cc1ccc(OCC(=O)OC2CN3CCC2CC3)cc1 (stereo not given),inactive: -0.04%
20,NS(=O)(=O)c1cccc(NC(=O)COC(=O)C(O)(c2ccccc2)c2ccccc2)c1,inactive: -5%
21,O=P1(Nc2ccc(Br)cn2)COc2ccccc2OC1,inactive: -1.86%
22,Cc1ccc(S(=O)(=O)N(CCCN)CCCc2c(C)nc(N)[nH]c2=O)cc1,inactive: 1.83%

row,Structure (SMILES),inhibition
1,O=P1(Nc2ncccn2)COc2ccccc2OC1,inactive: 1.5%
2,COP(=O)(OC)N1CC1c1ccccc1 (stereo not given),inactive: -5.05%
3,CCCCOc1ccc(C(=O)NCC2(N3CCCCC3)CCCCC2)cc1OC,inactive: -5.95%
4,Cc1cc(SC(NC(=O)c2ccccc2)C(Cl)(Cl)Cl)nc(C(C)C)n1 (stereo not given),inactive: -3.84%
5,O=C(O)C(O)c1ccc(N(CCCl)CCCl)cc1 (stereo not given),inactive: -3.11%
6,CCOC(=O)Nc1ccc([As](=O)(O)O)c(O)c1,inactive: 0.94%
7,CC1CCNP(=O)(N(CCCl)CCCl)O1 (stereo not given),inactive: -9.66%
8,Cc1cc(SC(NC=O)C(Cl)(Cl)Cl)ncn1 (stereo not given),inactive: -3.03%
9,O=P(Nc1ccccn1)(c1cccc2ccccc12)c1cccc2ccccc12,inactive: 2.09%
10,O=[N+]([O-])c1ccc(Nc2ccc(Oc3ccc([N+](=O)[O-])cc3[N+](=O)[O-])cc2)c([N+](=O)[O-])c1,inactive: 8.72%
11,CCOC(=O)Nc1cccc([As](=O)(O)O)c1,inactive: -0.19%
12,O=C(O)C(=O)c1ccc(N(CCCl)CCCl)cc1,inactive: 4.58%
13,O=C(COc1ccccc1)OC1CN2CCC1CC2 (stereo not given),inactive: 3.23%
14,O=C(Nc1ccncc1[N+](=O)[O-])c1ccc([N+](=O)[O-])cc1[N+](=O)[O-],inactive: 1.57%
15,COP1(=S)c2c(C)nn(CCC#N)c2N=C(c2ccc(F)cc2)N1C (stereo not given),inactive: 5.44%
16,COC(=O)C1(C)COP(=O)(N2CCCC2)OC1 (stereo not given),inactive: -8.5%
17,CCC(C)N(CC(C)C)C(=S)SC(NC(C)=O)C(Cl)(Cl)Cl (stereo not given),inactive: 8.51%
18,O=C(OC1CN2CCC1CC2)c1cccc([N+](=O)[O-])c1 (stereo not given),inactive: 9.31%
19,CCOC(=O)c1ccc(NC(=O)C(C)(CCl)SC)cc1 (stereo not given),inactive: 1.3%
20,O=P1(N(CCCl)CCCl)Nc2ccccc2N1,inactive: 2.29%
21,O=P1(N(CCCl)CCCl)OCCCN1CCCl (stereo not given),inactive: 3.42%

# Source: PubChem BioAssay AID720508 (The Scripps Research Institute Molecular Screening Center, 2013)
